Target: µ opioid receptor (Rattus norvegicus, UniProt P33535)
Assay: [35S]GTPγS functional assay, rat brain membranes, µ receptor
Assay type: biochemical, Sprague-Dawley rat
Set-up: from tissue; host or cells: Sprague-Dawley rat brain (without cerebella) membranes
Details: read-out: EC50, stimulation of [35S]GTPγS binding
Description: Membrane fractions were prepared from Sprague-Dawley rat or guinea pig brains as described above. To determine binding of [^35S]GTPyS, rat or guinea pig brain membranes (10 µg of protein) were incubated for 60 min at 30 °C in Tris-EGTA buffer (50 mM Tris-HCl buffer, 3 mM MgCl2, 1 mM EGTA, […], pH 7.4) containing 30 µM GDP, 0.05 nM [^35S]GTPyS and appropriate concentrations of the respective compounds according to the present invention in a final volume of 1 ml. The reaction was terminated by vacuum filtration through Whatman GF/B glass fibre filters. Filters were washed three times with ice-cold 50 mM Tris-HCI buffer (pH 7.4) and the bound radioactivity was measured by liquid scintillation counting (Beckman Coulter™ LS6500). Basal activity was determined by subtracting the non-specific binding (measured in the presence of 100 µM unlabelled GTPyS) from the total binding (measured in the absence of the compound).
Stimulation produced by the compound is given as percentage of the basal activity (given as 100%). Functional data, EC50 (nM; half maximal effective concentration) and maximal stimulation Emax (% stimulation over basal level; maximal effective concentration), were calculated by using nonlinear regression analysis and sigmoidal curve fitting GraphPad Prism (San Diego, CA, USA) program. […]

Sequences of proteins named here, by UniProt entry; tags and fusion partners are left off.
UniProt P33535, whole entry: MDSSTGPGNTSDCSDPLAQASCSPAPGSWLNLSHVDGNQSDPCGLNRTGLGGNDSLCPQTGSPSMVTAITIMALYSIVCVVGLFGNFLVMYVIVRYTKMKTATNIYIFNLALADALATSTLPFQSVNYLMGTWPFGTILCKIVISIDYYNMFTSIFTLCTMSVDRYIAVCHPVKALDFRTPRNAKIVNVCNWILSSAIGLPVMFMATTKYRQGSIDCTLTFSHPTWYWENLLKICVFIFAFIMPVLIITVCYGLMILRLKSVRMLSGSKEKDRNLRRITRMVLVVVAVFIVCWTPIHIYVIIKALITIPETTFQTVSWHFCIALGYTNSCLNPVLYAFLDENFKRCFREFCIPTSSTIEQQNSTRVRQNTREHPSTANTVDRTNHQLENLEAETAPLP

## C[C@@H](NC(=O)[C@@H](N)Cc1ccc(O)cc1)C(=O)NCC(=O)N(C)[C@@H](Cc1ccccc1)C(=O)NCCO [DAMGO, [D-Ala^2, Me-Phe ^4, Gly-ol^5]enkephalin]
  EC50: 297 ± 40 nM

Source: patent publication EP2340832A1, “Morphinan-6-one compounds for the treatment or prevention of neurodegenerative diseases” (Universität Innsbruck, priority 2009, dated 2011)
